This is an account of results in patent US20240317696A1, “ALKYL CARBOXYLIC ACID COMPOUNDS AND APPLICATION THEREOF” (MEDSHINE DISCOVERY INC., priority 2021, published 2024).

Amino acid sequences for entries named in this document (tags omitted).
UniProt Q02153, whole entry: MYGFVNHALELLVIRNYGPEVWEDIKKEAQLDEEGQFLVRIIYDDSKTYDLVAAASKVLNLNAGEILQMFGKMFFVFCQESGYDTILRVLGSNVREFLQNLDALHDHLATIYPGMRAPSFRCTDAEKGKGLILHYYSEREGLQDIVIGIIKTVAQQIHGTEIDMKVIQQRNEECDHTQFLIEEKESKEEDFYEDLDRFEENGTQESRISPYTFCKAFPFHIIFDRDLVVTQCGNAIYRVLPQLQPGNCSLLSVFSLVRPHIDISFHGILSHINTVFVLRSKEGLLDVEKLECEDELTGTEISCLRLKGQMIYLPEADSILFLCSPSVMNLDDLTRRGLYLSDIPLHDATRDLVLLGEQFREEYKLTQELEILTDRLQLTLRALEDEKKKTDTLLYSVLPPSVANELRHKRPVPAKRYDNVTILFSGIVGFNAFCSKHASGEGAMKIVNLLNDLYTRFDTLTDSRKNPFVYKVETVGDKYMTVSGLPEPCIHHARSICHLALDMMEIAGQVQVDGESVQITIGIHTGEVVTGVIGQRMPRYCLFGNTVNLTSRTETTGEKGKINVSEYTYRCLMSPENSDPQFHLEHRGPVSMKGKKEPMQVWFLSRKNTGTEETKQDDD
UniProt Q02108, whole entry partner: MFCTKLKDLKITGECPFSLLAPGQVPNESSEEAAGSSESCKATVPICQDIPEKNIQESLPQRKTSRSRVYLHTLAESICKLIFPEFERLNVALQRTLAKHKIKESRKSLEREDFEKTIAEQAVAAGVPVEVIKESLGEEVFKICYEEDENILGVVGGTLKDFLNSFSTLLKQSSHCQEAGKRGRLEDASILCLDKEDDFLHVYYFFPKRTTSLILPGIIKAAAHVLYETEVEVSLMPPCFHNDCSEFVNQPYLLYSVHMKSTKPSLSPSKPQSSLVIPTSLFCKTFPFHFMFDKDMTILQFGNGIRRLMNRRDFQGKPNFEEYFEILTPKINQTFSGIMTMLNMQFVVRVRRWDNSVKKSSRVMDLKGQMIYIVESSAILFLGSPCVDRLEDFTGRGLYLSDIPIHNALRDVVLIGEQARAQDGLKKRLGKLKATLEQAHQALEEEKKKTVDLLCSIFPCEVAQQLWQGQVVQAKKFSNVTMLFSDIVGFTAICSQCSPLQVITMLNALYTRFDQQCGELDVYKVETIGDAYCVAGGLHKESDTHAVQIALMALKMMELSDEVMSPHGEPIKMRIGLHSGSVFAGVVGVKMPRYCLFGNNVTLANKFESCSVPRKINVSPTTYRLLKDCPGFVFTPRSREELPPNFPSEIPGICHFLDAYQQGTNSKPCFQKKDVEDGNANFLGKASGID

For one data set, the target named is sGC (Homo sapiens (Human), UniProt Q02153). The data set is described as follows: cGMP expression test based on LNCap cells (sGC stimulatory activity). The conditions noted are these: ODQ present; for MEC: Minimum effective concentration required to stimulate cGMP production in LNCap cells (greater than three times the baseline value); for EC50: cGMP production in LNCap cells. Here is the method: I. cGMP Expression Test Based on InCap Cells
(1) The compound was diluted to a concentration of 10 mM using DMSO.
(2) A serial dilution of the compound was performed, resulting in 10 different concentration levels of each compound. 100 nL of each diluted compound was added to a 96-well plate.
3) Preparation of LNCap Cells
(1) LNCap culture medium: RPMI1640 supplemented with 10% fetal bovine serum (FBS) and 1% double antibody
(9) Assay buffer was added, and the cell concentration was adjusted to 3×10^6/mL.
4) Preparation and Addition of ODQ Solution
(1) 10 mM ODQ stock solution was diluted at a ratio of 1:1000 and added to the cell solution.
(2) After thorough mixing, the solution was added to a microplate at 10 μL per well.
5) Preparation of cGMP Standard Curve
(1) 1 mM cGMP stock solution was diluted to 10 μM using assay buffer. 11 concentration gradients were created through 4-fold serial dilutions.
(2) The diluted cGMP was added to the microplate at 10 μL per well.
6) Addition of Assay Reagents and Plate Reading
(1) cGMP-D2 was transferred to a 384-well plate at 5 μL per well. Anti-cGMP cryptate was transferred to a […] at 5 μL per well. Centrifugation was performed at 1500 rpm for 1 minute.
(2) Incubation was carried out at room temperature for 1 hour.
(3) The plates were read using envision at 665/615 wavelengths.
(1) cGMP standard curve: A standard curve was generated using GraphPad Prism, based on the ratio of cGMP concentration to the 665/615 wavelength values.
(2) Conversion of HTRF (homogeneous time-resolved fluorescence) ratio (665/615) to cGMP concentration: In GraphPad Prism, the HTRF ratio (665/615) was copied to the ratio column of the cGMP standard curve. The analysis “Log inhibitor vs response-variable slope” was run, and the “interpolate” option was selected to convert the HTRF ratio (665/615) into cGMP concentration.
(3) Compound activation curve: A curve was generated using the “Log agonist vs response-variable slope” analysis method in GraphPad Prism, based on the converted cGMP concentration and compound concentration.

Data set [1] is described as follows: In vivo pharmacokinetic property study in male Sprague Dawley rats. On the procedure: Experimental objective: The aim of this study was to determine the pharmacokinetic parameters of the compound in male Sprague Dawley rats.
Sprague Dawley rats (male, 200 to 300 g, 7 to 9 weeks old, procured from Shanghai SLAC)
For this project, four male Sprague Dawley rats were used. Two rats in one group were administered the compound intravenously at a dosage of 2 mg/kg and a concentration of 0.4 mg/mL. Two rats in another group were administered the compound orally at a dosage of 10 mg/kg and a concentration of 1 mg/mL. Plasma samples were collected 0.083 (intravenous group only), 0.25, 0.5, 1, 2, 4, 6, 8, and 24 hours after administration. The collected samples were then analyzed using LC-MS/MS and data were collected. The collected analytical data were processed using Phoenix WinNonlin 6.3 software to calculate relevant pharmacokinetic parameters.

A word on the EC50: it is the concentration needed to bring the measured effect to its halfway point. The low end stands for greater potency, the high end for weaker potency. Broadly, the AUC is the area under the concentration-time curve, a measure of exposure. Usually Vdss stands for the apparent volume that relates the amount in the body to the concentration in plasma or blood.

On to `C[C@H]([C@H](C(=O)Nc1cc(C(CC(=O)O)C2CCCO2)ccc1Cl)c1ccc(Cl)cc1)C(F)(F)F` (single isomer, unassigned), for which, on sGC, the MEC was 9.83 nM and the EC50 was found to be 81.2 nM.
`COC12CC(C(CC(=O)O)c3ccc(Cl)c(NC(=O)[C@H](c4ccc(Cl)cc4)[C@@H](C)C(F)(F)F)c3)(C1)C2` (single isomer, unassigned): in data set [1] (iv 2 mg/kg), the AUC came out at 9.147 µM·h, the Cl was found to be 6.7 mL/min/kg, the T1/2 worked out at 2.38 h and the Vdss came out at 0.67 L/kg. In data set [1] (po 10 mg/kg), this compound had an exposure (AUC) of 36.252 µM·h and a T1/2 of 2.72 h. In addition, the “% F” value in data set [1] (po 10 mg/kg vs iv 2 mg/kg) was found to be 79.4%. At sGC, this compound had an MEC of 0.82 nM and an EC50 of 16.7 nM.
Turning to `C[C@H]([C@H](C(=O)Nc1cc(C(CC(=O)O)C23CC(F)(C2)C3)ccc1F)c1ccc(Cl)cc1)C(F)(F)F` (single isomer, unassigned) [WX009], on sGC, the MEC is given as 33.06 nM and the EC50 came out at 29 nM.
At sGC, `C[C@H]([C@H](C(=O)Nc1cc(C(CC(=O)O)C23CC(F)(C2)C3)ccc1Cl)c1ccc(Cl)cc1)C(F)(F)F` (single isomer, unassigned) came in with an MEC of 7.92 nM and an EC50 of 33.6 nM.
As for `C[C@H]([C@H](C(=O)Nc1cc(C(CC(=O)O)C2CCCC2)ccc1Cl)c1ccc(Cl)cc1)C(F)(F)F` (single isomer, unassigned), the EC50 on sGC was 27.7 nM.
With `C[C@H]([C@H](C(=O)Nc1cc(C(CC(=O)O)C23CC(F)(C2)C3)ccc1F)c1ccc(Cl)cc1)C(F)(F)F` (single isomer, unassigned) [WX008], at sGC, the MEC turned out to be 0.95 nM and the EC50 came to 4.14 nM.
The corresponding values for `Cc1ccc(C(CC(=O)O)C23CC(F)(C2)C3)cc1NC(=O)[C@H](c1ccc(Cl)cc1)[C@@H](C)C(F)(F)F` (single isomer, unassigned) are 25.92 nM and 66.1 nM.
